Measured values taken from ChEMBL document CHEMBL2448811, “Comparison of the accuracy of experimental and predicted pKa values of basic and acidic compounds” (Pharm Res, 2013).

Experiment: physchem

- pKa: 8.71
SMILES: CC/C(=C(\c1ccccc1)c1ccc(OCCN(C)C)cc1)c1ccccc1 [TAMOXIFEN]
